Results as given in patent US20100256086A1, “NON-HYDROLYZABLE NUCLEOSIDE DI- OR TRI-PHOSPHATE DERIVATIVES AND USES THEREOF” (priority 2007, published 2010).

System: alkaline phosphatase

Substance: 2-MeS-ATP-α-B [Compound 1]
- fraction remaining in alkaline phosphatase (after 12 min at 37° C.): 40%
- amount detectable in alkaline phosphatase (after 100 min, HPLC-MS): only traces
